Results taken from the supplement of paper PMC9135407.
Structures can show the parent of a compound that is named as a salt. Shown are results outside the selection of hits, which stands elsewhere.

What follows are molecules tested on primary human hepatic stellate cells (donor 1) (assay: COL1A1 mRNA fold change vs DMSO (normalised to PSMB2); higher = more COL1A1 expression, active = hit call of the paper). Conditions: 33.3333 µM; 48 h.
Protocol: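 Secondary qRT-PCR screen in primary human HSCs (donor 1), 384-well plates, with compounds dispensed in quadruplicate and incubated for 48 h. Cells-to-CT lysates were used for multiplexed TaqMan qPCR of ACTA2 or COL1A1 with PSMB2 as reference. Fold changes versus DMSO come from a linear model (Ct_gene ~ Ct_PSMB2 + plate + chemical). A hit is defined as COL1A1 and ACTA2 FC <0.5 (FDR <0.05) with PSMB2 between 0.2 and 2.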

SMILES | COL1A1 mRNA fold change
N/C(=N/CCc1ccc(I)cc1)SCCCc1cnc[nH]1 [Iodophenpropit dihydrobromide] | inactive: 0.0932
